Biological target: human ACC2 (Homo sapiens (Human), UniProt O00763)
Experiment: ACC2 assay, spectrophotometric 384 well assay (NADH-linked kinetic method)
Assay type: biochemical
Settings: human ACC2 construct lacking the 128 N-terminal amino acids; coupled lactate dehydrogenase/pyruvate kinase reaction, 340 nm, 25° C.
Experimental: Spectrophotometric 384 Well Assay
Malonyl CoA formation by acetyl CoA carboxylases is stoichometrically linked to the consumption of ATP. ACC2 activity is measured in a NADH-linked kinetic method measuring ADP generated during the ACC reaction using a coupled lactate dehydrogenase/pyruvate kinase reaction.
For biological testing, a human ACC2 construct which lacks the 128 amino acids at the N-terminus for increased solubility (nt 385-6966 in Genbank entry AJ575592) is cloned. The protein is then expressed in insect cells using a baculoviral expression system. Protein purification is performed by anion exchange.
All compounds are dissolved in dimethyl sulfoxide (DMSO) to a concentration of 10 mM.
The enzymatic reaction is then started by addition of a mixture of NADH, acetyl Coenzyme A (both 2000 μM f.c.) and ATP (500 uM f.c.). The decrease of the optical density (slope S) is then determined at 25° C. at a wavelength of 340 nm over 15 minutes in a spectrophotometric reader.
Each assay microtiter plate contains wells with vehicle instead of compound as controls for the non-inhibited enzyme (100% CTL; ‘HIGH’) and wells without acetyl-CoA as controls for non-specific NADH degradation (0% CTL; ‘LOW’).
The slope S is used for calculation of % CTL=(S(compound)−S(‘LOW’))/(S(‘HIGH’)−S(‘LOW’))*100. […]

Protein sequences, listed by entry. Tags and fused reporters are not part of them. Residues count along the entry.
UniProt O00763, 129-2458: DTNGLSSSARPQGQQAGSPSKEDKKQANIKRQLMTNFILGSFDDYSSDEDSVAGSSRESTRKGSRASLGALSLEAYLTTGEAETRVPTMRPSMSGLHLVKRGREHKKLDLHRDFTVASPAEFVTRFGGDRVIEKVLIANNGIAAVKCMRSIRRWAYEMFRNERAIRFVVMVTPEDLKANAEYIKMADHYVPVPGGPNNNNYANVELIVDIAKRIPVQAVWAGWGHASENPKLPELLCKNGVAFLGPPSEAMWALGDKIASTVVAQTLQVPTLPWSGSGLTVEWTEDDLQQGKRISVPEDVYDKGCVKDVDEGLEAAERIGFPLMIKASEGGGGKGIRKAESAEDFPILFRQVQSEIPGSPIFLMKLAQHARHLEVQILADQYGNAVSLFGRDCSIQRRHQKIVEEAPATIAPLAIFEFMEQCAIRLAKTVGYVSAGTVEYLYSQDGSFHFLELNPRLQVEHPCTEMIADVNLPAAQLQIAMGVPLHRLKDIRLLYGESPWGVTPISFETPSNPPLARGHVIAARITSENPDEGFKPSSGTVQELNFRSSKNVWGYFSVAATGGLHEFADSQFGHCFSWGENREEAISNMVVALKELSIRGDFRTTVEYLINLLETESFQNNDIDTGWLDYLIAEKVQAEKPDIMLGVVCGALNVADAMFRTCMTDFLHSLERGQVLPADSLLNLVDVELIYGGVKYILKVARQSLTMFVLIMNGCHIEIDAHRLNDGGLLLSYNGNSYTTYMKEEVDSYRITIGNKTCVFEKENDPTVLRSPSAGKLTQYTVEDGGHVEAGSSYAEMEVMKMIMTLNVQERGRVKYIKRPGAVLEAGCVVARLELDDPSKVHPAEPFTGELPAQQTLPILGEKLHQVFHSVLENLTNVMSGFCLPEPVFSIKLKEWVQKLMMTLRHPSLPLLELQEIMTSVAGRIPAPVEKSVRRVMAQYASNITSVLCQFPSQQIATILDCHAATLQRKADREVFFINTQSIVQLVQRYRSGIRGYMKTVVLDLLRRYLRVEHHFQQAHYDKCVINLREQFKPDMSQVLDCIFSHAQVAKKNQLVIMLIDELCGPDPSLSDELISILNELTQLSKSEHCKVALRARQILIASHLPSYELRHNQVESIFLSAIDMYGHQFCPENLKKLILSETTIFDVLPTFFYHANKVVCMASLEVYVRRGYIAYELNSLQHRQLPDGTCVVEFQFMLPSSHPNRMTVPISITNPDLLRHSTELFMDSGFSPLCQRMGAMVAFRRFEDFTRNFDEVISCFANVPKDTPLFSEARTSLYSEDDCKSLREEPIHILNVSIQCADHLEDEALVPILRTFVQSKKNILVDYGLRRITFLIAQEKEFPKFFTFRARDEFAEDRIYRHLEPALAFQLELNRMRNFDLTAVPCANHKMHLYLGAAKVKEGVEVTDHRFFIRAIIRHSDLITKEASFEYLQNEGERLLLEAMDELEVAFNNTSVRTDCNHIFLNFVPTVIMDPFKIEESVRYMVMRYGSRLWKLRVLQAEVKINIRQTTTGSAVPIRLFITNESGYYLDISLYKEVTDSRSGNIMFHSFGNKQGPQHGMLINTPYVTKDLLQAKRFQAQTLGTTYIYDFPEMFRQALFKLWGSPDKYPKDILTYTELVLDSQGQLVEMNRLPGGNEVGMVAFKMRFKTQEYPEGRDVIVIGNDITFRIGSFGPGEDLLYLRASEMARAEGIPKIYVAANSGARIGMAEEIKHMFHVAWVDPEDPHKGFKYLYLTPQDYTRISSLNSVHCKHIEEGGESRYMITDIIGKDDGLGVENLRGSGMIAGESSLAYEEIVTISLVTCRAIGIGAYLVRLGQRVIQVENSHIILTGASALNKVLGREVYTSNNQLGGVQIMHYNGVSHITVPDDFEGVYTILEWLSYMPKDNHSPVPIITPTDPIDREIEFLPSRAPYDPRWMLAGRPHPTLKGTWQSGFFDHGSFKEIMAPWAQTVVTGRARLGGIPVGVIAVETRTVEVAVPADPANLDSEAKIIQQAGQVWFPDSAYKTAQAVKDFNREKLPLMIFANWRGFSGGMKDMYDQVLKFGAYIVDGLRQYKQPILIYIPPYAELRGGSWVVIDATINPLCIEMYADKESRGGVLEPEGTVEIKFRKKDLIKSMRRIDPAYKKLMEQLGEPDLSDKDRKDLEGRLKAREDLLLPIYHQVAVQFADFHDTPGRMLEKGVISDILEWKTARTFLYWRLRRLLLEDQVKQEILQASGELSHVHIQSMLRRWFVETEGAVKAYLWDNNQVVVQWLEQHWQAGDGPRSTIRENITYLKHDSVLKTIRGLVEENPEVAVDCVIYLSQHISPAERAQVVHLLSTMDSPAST

SMILES | IC50 [nM]
CC(C)Oc1cc(N2CCC(Oc3ccc([C@H](C)NC(=O)C4CC(F)C4)cc3)C2)ccn1 (some centres unmarked) [Example 2.14] | 410
CCN(C)C(=O)N[C@@H](C)c1ccc(OC2CCN(c3ccnc(OCC(F)F)c3)C2)cc1 (some centres unmarked) [Example 3.15] | 411

Source: US8877741B2, “Pyrrolidine derivatives, pharmaceutical compositions and uses thereof” (Boehringer Ingelheim International GmbH, priority 2013, dated 2014)
